{"source": "patent US9018214B2", "about": "“Bicyclic heterocycle compounds and their uses in therapy” (Astex Therapeutics Limited, priority 2011, dated 2015)", "key": {"[1]": {"target": "BIR3 domain of human cIAP-1 (residues 267-363) (Homo sapiens (Human), UniProt Q13490)", "assay": "cIAP-1 in vitro competitive displacement binding assay (fluorescence polarization; Probe A AVPIK(5&6FAM)-amide or Probe B AbuRPFK(5&6FAM)-amide)"}, "[2]": {"tested_on": "EVSA-T (human breast carcinoma)", "assay": "Anti-proliferative activity, Alamar Blue assay, EVSA-T", "format": "cell-based", "details": "72 h, read-out: EVSA-T prolif (EC50)"}}, "note": "Counter-ions that a name gives are not always drawn. Like-named read-outs stand apart in the source and are kept apart here."}
{"smiles": "COC[C@H]1CN[C@H](C)CN1CC(=O)N1CC(C)(C)c2cnc(C(OC)c3ccccc3)cc21", "note": "(stereo partly drawn) [Example 132, 1-{6-[Methoxy(phenyl)methyl]-3,3-dimethyl-1H,2H,3H-pyrrolo[3,2-c]pyridin-1-yl}-2-[(2R,5R)-2-(methoxymethyl)-5-methylpiperazin-1-yl]ethan-1-one dihydrochloride]", "values": [{"measurement": "IC50", "setting": "[1]", "value": "< 1000", "unit": "nM"}]}
{"smiles": "COC[C@H]1CN[C@H](C)CN1CC(=O)N1C[C@](C)(c2ccccc2)c2ccc(C#N)cc21", "note": "[Example 140, (3R)-1-{2-[(2R,5R)-2-(Methoxymethyl)-5-methylpiperazin-1-yl]acetyl}-3-methyl-3-phenyl-2,3-dihydro-1H-indole-6-carbonitrile]", "values": [{"measurement": "IC50", "setting": "[1]; Probe B AbuRPFK(5&6FAM)-amide, read-out: IC50 or PI cIAP1: IC50", "value": 220, "unit": "nM"}]}
{"smiles": "C[C@@H]1CN(CC(=O)N2CC(C)(C)c3ncc(C(C)(F)F)cc32)[C@@H](CN2CCCC2=O)CN1", "note": "[Example 188, 1-{[(2R,5R)-1-{2-[6-(1,1-Difluoroethyl)-3,3-dimethyl-1H,2H,3H-pyrrolo[3,2-b]pyridin-1-yl]-2-oxoethyl}-5-methylpiperazin-2-yl]methyl}pyrrolidin-2-one dihydrochloride]", "values": [{"measurement": "EC50", "setting": "[2]", "value": 630, "unit": "nM"}]}
{"smiles": "C[C@@H]1CN(CC(=O)N2CC(C)(C)c3cnc(Cc4ccc(F)cc4F)cc32)[C@@H](CN2CCCC2)CN1", "note": "[Example 220, 1-{6-[(2,4-Difluorophenyl)methyl]-3,3-dimethyl-1H,2H,3H-pyrrolo[3,2-c]pyridin-1-yl}-2-[(2R,5R)-5-methyl-2-(pyrrolidin-1-ylmethyl)piperazin-1-yl]ethan-1-one dihydrochloride]", "values": [{"measurement": "IC50", "setting": "[1]", "value": "< 1000", "unit": "nM"}]}
{"smiles": "CC(C)CC(F)(F)c1cnc2c(c1)N(C(=O)CN1C[C@@H](C)NC[C@@H]1CN1CCOCC1)CC2(C)C", "note": "[Example 235, 1-[6-(1,1-Difluoro-3-methylbutyl)-3,3-dimethyl-1H,2H,3H-pyrrolo[3,2-b]pyridin-1-yl]-2-[(2R,5R)-5-methyl-2-(morpholin-4-ylmethyl)piperazin-1-yl]ethan-1-one]", "values": [{"measurement": "IC50", "setting": "[1]", "value": "< 1000", "unit": "nM"}]}
